Assay results as given in PMC8392593.
pKd: −log10 of the molar value.

Columns and labels:
[1] = biological target: GST-MuRF1 (muscle-specific RING finger protein 1, TRIM63), labelled with NT-647 (rat) (UniProt Q91Z63); experiment: other fluorescence titration; fluorescence quenching on Monolith NT.115; labelled MuRF1 5 nM, F-actin 6.25 μM to 0.763 nM, in F buffer to keep a-actin filamentous
[2] = biological target: GST-MuRF1 (muscle-specific RING finger protein 1, TRIM63), labelled with NT-647 (rat) (UniProt Q91Z63); experiment: other fluorescence titration; fluorescence quenching on Monolith NT.115; labelled MuRF1 5 nM, G-actin 25 μM to 0.763 nM, in G buffer to keep a-actin monomeric

filamentous alpha-actin (F-actin) from rabbit skeletal muscle (from UniProt P68135 1-377) (natural protein; other documents disagree on this pair)
pKd [1]: 7.33

monomeric globular alpha-actin (G-actin) from rabbit skeletal muscle (from UniProt P68135 1-377) (natural protein; other documents disagree on this pair)
pKd [2]: 6.35
